Ab-95 light chain CDR variants: yeast mating affinities

Target: peptide PDVDLGDISGINAS, taken from heptad repeat 2 (HR2) of SARS-CoV-2 spike.

The variants keep the heavy chain, the linker and the frameworks of Ab-95 (scFv order VH, three GGGGS repeats, VL).
VH: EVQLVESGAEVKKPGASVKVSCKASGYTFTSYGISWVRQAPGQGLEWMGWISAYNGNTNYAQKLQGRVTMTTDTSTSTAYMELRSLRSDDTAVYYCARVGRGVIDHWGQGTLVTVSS
VL: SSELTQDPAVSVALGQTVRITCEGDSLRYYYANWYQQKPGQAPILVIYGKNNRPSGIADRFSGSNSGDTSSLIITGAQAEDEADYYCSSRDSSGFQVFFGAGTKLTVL

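The parent was found by panning a naive human phage display library on the peptide. In library AAYL52, one, two or three CDR residues were substituted; doubles and triples were drawn at random. Affinity was read by AlphaSeq, a pooled yeast mating assay with surface-displayed partners. Pairs that bind mate more often; barcode pairs of the diploids are counted by sequencing. Each replicate has its own calibration line, from reference interactions of the BCL2 family. Mating was done three times.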

Sequences are complete VL domains. The read-out is the apparent dissociation constant on a log10 scale (nM): the lower, the stronger. Averages over replicates are reported, and they cover detected replicates only. Where no diploid with the target was found in any replicate, the entry reads "no signal": below detection, most likely a poor binder, though not proof of it. Nonspecific signal, from three strains lacking the peptide, appeared in 28% of pairings of library AAYL52, centred on 3.91 (5% of these signals below 2.90); values are not corrected for it. For each scFv, signals with the empty controls are counted beside the result. In this assay the parent's reference entry averaged 2.31; its copy inside this library read 2.25.

mean, log10 nM | detected | empty controls | VL
no signal | 0/3 | 3/9 | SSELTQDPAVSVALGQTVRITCEGDSLRLYWANWYQQKPGQAPILVIYGKNNRPSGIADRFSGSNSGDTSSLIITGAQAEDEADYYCSSRHSSGFQVFFGAGTKLTVL
4.43 | 1/3 | 4/9 | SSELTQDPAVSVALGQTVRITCEGDSKRYYYANWYQQKPGQAPILVIYGKFNRPGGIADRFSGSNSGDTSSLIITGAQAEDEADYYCSSRDSSGFQVFFGAGTKLTVL
2.76 | 3/3 | 0/9 | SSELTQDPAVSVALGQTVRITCELRSMRYYYANWYQQKPGQAPILVIYGKNNRPSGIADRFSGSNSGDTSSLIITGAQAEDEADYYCSSRDSSGFQVFFGAGTKLTVL
3.39 | 3/3 | 2/9 | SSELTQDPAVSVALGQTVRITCEGDSLPYYYANWYQQKPGQAPILVIYGKNNRSSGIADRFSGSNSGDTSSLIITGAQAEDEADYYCSSRTSSGFQVFFGAGTKLTVL
3.97 | 2/3 | 3/9 | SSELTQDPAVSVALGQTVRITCEGDSLRYYYANWYQQKPGQAPILVIYGKNNRYSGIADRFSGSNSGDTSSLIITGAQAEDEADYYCSSDPSSGFQVFFGAGTKLTVL
3.59 | 3/3 | 1/9 | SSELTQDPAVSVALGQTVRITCEGDSLRCYYSNWYQQKPGQAPILVIYGKNNRPSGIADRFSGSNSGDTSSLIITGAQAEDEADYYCSSRDSSGFQVFFGAGTKLTVL
4.18 | 1/3 | 2/9 | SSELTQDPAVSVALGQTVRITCEGDSLRYYYAIWYQQKPGQAPILVIYGKNNRPSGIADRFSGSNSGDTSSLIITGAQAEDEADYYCSSRDFRGFQVFFGAGTKLTVL
1.59 | 3/3 | 5/9 | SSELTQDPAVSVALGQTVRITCEPDSVRYYYAMWYQQKPGQAPILVIYGKNNRPSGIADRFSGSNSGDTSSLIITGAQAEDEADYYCSSRDSSGFQVFFGAGTKLTVL
2.67 | 2/3 | 4/9 | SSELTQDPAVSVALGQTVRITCEGDSLRYYHANWYQQKPGQAPILVIYGKNNRPSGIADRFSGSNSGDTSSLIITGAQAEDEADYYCSSRWSSGFQVFFGAGTKLTVL
3.79 | 3/3 | 5/9 | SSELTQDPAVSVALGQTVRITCEGDSLRYYYANWYQQKPGQAPILVIYGKNNRPWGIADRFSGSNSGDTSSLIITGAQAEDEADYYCSSRDSPGFPVFFGAGTKLTVL
3.95 | 1/3 | 1/9 | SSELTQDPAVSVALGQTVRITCEGDSLRYYYANWYQQKPGQAPILVIYMKNNRPSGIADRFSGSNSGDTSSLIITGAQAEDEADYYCSSNDESGFQVFFGAGTKLTVL
2.38 | 3/3 | 0/9 | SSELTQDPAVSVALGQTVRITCEGDSRRYSYANWYQQKPGQAPILVIYGKNNRPKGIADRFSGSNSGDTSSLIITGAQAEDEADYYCSSRDSSGFQVFFGAGTKLTVL
3.58 | 3/3 | 1/9 | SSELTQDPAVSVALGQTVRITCEGDSLREYYANWYQQKPGQAPILVIYGKNNRPGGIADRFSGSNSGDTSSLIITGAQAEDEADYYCSSRDSSGAQVFFGAGTKLTVL
4.00 | 1/3 | 2/9 | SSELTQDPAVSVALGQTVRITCEGDSLRYYEANWYQQKPGQAPILVIYGKNNRPSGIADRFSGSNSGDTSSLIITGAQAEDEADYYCSSPDSSGFQVRFGAGTKLTVL
3.72 | 1/3 | 0/9 | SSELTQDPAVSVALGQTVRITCEGASLRYYYASWYQQKPGQAPILVIYGKNNRPSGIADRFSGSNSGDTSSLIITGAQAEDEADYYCSSRDSNGFQVFFGAGTKLTVL
2.09 | 3/3 | 2/9 | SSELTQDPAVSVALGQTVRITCTGDSLRYYKANWYQQKPGQAPILVIYGKNNRPSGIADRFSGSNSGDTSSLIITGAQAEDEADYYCSSRDSSGFQTFFGAGTKLTVL
no signal | 0/3 | 0/9 | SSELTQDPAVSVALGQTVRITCEGGSLRYYYANWYQQKPGQAPILVIYWKNNRPSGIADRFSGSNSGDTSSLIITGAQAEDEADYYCSSRDSSGFQVFFGAGTKLTVL
3.27 | 3/3 | 4/9 | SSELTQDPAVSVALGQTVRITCEGDSLRYYVANWYQQKPGQAPILVIYGKNNRPSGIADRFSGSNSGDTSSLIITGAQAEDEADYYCSSRDWSGLQVFFGAGTKLTVL

Repeated from above, the 2 best binders with a signal in all replicates:

VL | mean, log10 nM | detected | empty controls
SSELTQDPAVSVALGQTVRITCEPDSVRYYYAMWYQQKPGQAPILVIYGKNNRPSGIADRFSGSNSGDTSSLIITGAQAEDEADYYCSSRDSSGFQVFFGAGTKLTVL | 1.59 | 3/3 | 5/9
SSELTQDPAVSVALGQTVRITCTGDSLRYYKANWYQQKPGQAPILVIYGKNNRPSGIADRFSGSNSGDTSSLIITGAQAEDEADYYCSSRDSSGFQTFFGAGTKLTVL | 2.09 | 3/3 | 2/9

From the AlphaSeq antibody data of Engelhart et al. 2022 (doi:10.1038/s41597-022-01779-4), copy in the FLAb collection.